Measured values from EP4696711A1, “ANTIGEN BINDING MOLECULE SPECIFICALLY BINDING TO EGFR AND MUC1, DRUG CONJUGATE THEREOF, AND MEDICAL USE THEREOF” (Jiangsu Hengrui Pharmaceuticals Co., Ltd., priority 2023, dated 2024).

What was measured:
HPAC cells [1] = conditions: 6 days, CTG
HPAC cells [2] = test: FACS-based affinity of monoclonal antibodies, bispecific antibodies and ADCs for tumor cells; format: binding, human; conditions: unit inferred, / means undetectable
Procedure: The culture medium in the cell culture flask was discarded, and the cells were washed once with PBS and then digested with an appropriate amount of trypsin (Invitrogen, Cat. No. 25200072). HCC827, T47D, and HPAC cells were added to a 96-well plate at 100,000 cells/well. After the plate was centrifuged at 300 g for 5 min, the supernatant was discarded, and the cells were washed once with a PBS buffer containing 2% FBS. The antibodies were 5-fold diluted from a starting concentration of 20 µg/mL using a PBS buffer containing 2% FBS to obtain a total of 8 concentration gradients. The antibody samples were added at 100 µL/well, and the cells were resuspended and incubated at 4 °C for 1 h. After the plate was centrifuged at 300 g for 5 min, the supernatant was discarded, and the cells were washed twice with a PBS buffer containing 2% FBS. […] After the plate was centrifuged at 300 g for 5 min, the supernatant was discarded, and the cells were washed twice with a PBS buffer containing 2% FBS. The cells were resuspended in 100 µL of a PBS buffer containing 2% FBS and analyzed using an instrument.
The culture medium in the cell culture flask was discarded, and the cells were washed once with PBS and then digested with an appropriate amount of trypsin (Invitrogen, Cat. No. 25200072). […] The cells were resuspended in 100 µL of a PBS buffer containing 2% FBS and analyzed using an instrument.

[3] = test system: human non-small cell lung cancer HCC827 tumor-bearing mice; test: Efficacy of ADCs in in vivo HCC827 CDX model; conditions: 3 mpk
[4] = test system: human pancreatic acinar epithelial carcinoma cell HPAC tumor-bearing mice; test: Efficacy of ADCs in in vivo HPAC CDX model; conditions: 3 mpk
[5] = one dose, intraperitoneal injection, D30
[6] = D1 D9, intraperitoneal injection, D30

B1: ZalH4-9-A: EGFR antibody ZalH4 conjugated to toxin 9-A; average DAR n = 5.94 (conjugate)
heavy: QVQLVESGGGVVQPGRSLRLSCAASGFTFSTYGMHWVRQAPGKGLEWVAVIWDDGSYKYYGDSVKGRFTISRDNSKNTLYLQMNSLRAEDTAVYYCARDGVTMVRGVMKDYFDYWGQGTLVTVSSASTKGPSVFPLAPSSKSTSGGTAALGCLVKDYFPEPVTVSWNSGALTSGVHTFPAVLQSSGLYSLSSVVTVPSSSLGTQTYICNVNHKPSNTKVDKKV[human IgG1 Fc not spelt out]
light: DIQLTQSPSSLSASVGDRVTITCRASQDISSALVWYQQKPGKAPKLLIYDASSLESGVPSRFSGSESGTDFTLTISSLQPEDFATYYCQQFNSYPLTFGGGTKVEIKRTVAAPSVFIFPPSDEQLKSGTASVVCLLNNFYPREAKVQWKVDNALQSGNSQESVTEQDSKDSTYSLSSTLTLSKADYEKHKVYACEVTHQGLSSPVTKSFNRGEC
Work on B1 yielded an IC50 (HPAC cells [1]) of 204 nM, an IMax% (HPAC cells [1]) of 60.81% and an EC50 (HPAC cells [2]) of 0.9 nM. For the same molecule, the “Mean tumor volume (mm^3) D30” value [3, 5] was 38.30 mm^3, the “Tumor growth inhibition rate (%) D30” value [3, 5] was 122.10% and the “Number of animals per group (number of deaths)” value ([3]; number of deaths, one dose i.p.) was 10(0). For the same molecule, the “Mean tumor volume (mm^3) D30” value [4, 6] was 911.47 mm^3, the “Tumor growth inhibition rate (%) D30” value [4, 6] was 50.90% and the “Number of animals per group (number of deaths)” value ([4]; number of deaths, D1 D9 i.p.) was 8(0).
